# Binding of CDR-mutated scFvs to a peptide of the spike HR2 region

Target: peptide PDVDLGDISGINAS, taken from heptad repeat 2 (HR2) of SARS-CoV-2 spike.

Parent: Ab-14, a human scFv built as VH, a (GGGGS)3 linker, VL. Only the CDRs of the light chain vary.
VH: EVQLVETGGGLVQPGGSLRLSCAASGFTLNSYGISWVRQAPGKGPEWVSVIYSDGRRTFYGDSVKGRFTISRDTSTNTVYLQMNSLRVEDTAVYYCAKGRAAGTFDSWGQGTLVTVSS
VL: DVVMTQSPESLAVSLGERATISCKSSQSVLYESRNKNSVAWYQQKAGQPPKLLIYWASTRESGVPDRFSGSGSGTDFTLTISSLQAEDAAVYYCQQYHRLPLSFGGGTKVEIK

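The starting antibody came from a phage panning campaign against this peptide. Designed CDR sequences, proposed from the first random library and measured here. Several design methods are mixed in this list. In AlphaSeq, yeast of one mating type display the scFv and yeast of the other type display the target. Pairs that bind mate more often; barcode pairs of the diploids are counted by sequencing. The ratio of observed to expected reads was calibrated, replicate by replicate, on BCL2-family standards whose Kd was known from biolayer interferometry. There are six technical replicates.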

The parent's light chain CDRs are KSSQSVLYESRNKNSVA, WASTRES, QQYHRLPLS; each variant's own CDRs replace them letter for letter. Scale: log10 of Kd in nM, estimated from mating counts; low values are strong binders. A mean of the replicates is given; it leaves out those without a signal. "n.d." means that the variant was in the library but no mating with the target was seen in that replicate; the authors take this as a sign of poor binding, and no number exists. The list is sorted by this average, lowest first, undetected variants last.

"replicates, log10 nM","log10 Kd (nM), mean",CDR-L1,CDR-L2,CDR-L3
-0.18 / -0.41 / -0.45 / -0.61 / -0.61 / -0.43,-0.45,HVSPSVLYESRNKNSVA,DASTRES,QQYHRLPLS
-0.39 / -0.08 / -0.77 / -0.51 / 0.09 / -0.37,-0.34,KSSQTVLYESRNKNSVA,DASTRES,QQYHRLPPS
-0.38 / -0.13 / -0.46 / -0.33 / -0.42 / -0.32,-0.34,KFSQSVLYESRQKNGVA,NASTRES,QQYHRLPLS
-0.21 / -0.40 / -0.39 / -0.45 / 0.00 / -0.42,-0.31,KLSQSVMYESRNKNSVA,EASTREE,QQYHRLPLS
0.02 / -0.11 / -0.29 / -0.05 / -0.27 / -0.14,-0.14,KLSQSELYESRNKNSVA,NASKRES,QQYHRLPLS
-0.01 / -0.01 / -0.17 / -0.26 / -0.10 / 0.05,-0.08,KVSQEDLYESRNKNSVA,DASTRES,QQYHRLPLS
-0.25 / 0.01 / -0.40 / 0.05 / -0.23 / 0.37,-0.08,KVSQSWLMESRNKNSVA,EASTRMS,QQYHRLPLS
0.03 / 0.02 / -0.15 / -0.21 / -0.10 / 0.10,-0.05,KCSQSVDYESRNKNSVA,DASTRES,QQYHRLPLS
0.02 / 0.02 / -0.08 / -0.25 / -0.08 / 0.12,-0.04,KLQQSVLYESRNPNSVA,NASTRLS,QQYHRLPLS
0.06 / -0.05 / -0.14 / -0.06 / -0.02 / 0.03,-0.03,KLSQSVLYESRNKNSVA,NASTREQ,QQYHRLPLQ
0.04 / -0.02 / 0.10 / -0.19 / -0.01 / 0.19,0.02,KFMQMVMQEDRNKNSVA,QASTRMQ,QQYHRLPLS
0.19 / 0.03 / -0.11 / -0.03 / -0.03 / 0.08,0.02,VLSQSVLYESRNKNSVA,NASTRLS,QQYHRLPLS
0.24 / 0.22 / -0.05 / -0.15 / -0.01 / -0.03,0.04,KLSQSEDYESRNKNSVA,NASTRLS,QQYHRLPLS
0.47 / 0.04 / -0.02 / -0.14 / -0.10 / 0.09,0.06,KVSQSELYESRNKNSVA,EASTRES,QDYHRLPLS
-0.10 / 0.24 / -0.13 / 0.24 / 0.31 / -0.20,0.06,KSSQSVLFESRNANSVA,DALTRES,QQYHRLPLS
0.23 / 0.03 / -0.04 / -0.09 / -0.08 / 0.37,0.07,QIYQAMHTLSQMKDNVA,DVNERGT,QQYYRLPLS
0.20 / 0.21 / 0.23 / -0.19 / -0.02 / 0.11,0.09,MLSDTVMQGSYYRNSVA,QESTRAD,QQYHRLPLS
0.33 / -0.06 / 0.25 / 0.27 / -0.13 / -0.10,0.09,KLSMSVMMESRNKNSVA,SANTREE,QQYHRLPLS
0.13 / 0.05 / 0.08 / 0.00 / -0.03 / 0.36,0.10,KISQSSLYESRNKNSVA,QAVTRES,QQYHRLPLS
0.38 / 0.12 / 0.00 / -0.05 / 0.16 / 0.05,0.11,KSSQSDLYESRNKNSVA,GASFRES,QQYHRLPLS
0.12 / 0.39 / -0.36 / 0.31 / 0.01 / 0.39,0.14,KSSQVVGMESRNSNSVA,DASTRES,QQYHRLPLS
0.21 / 0.20 / 0.18 / 0.11 / 0.09 / 0.40,0.20,KLSQSELYESRNKWSVA,NASTRES,QQYHRLPLS
0.13 / 0.24 / 0.28 / 0.10 / 0.16 / 0.50,0.23,HSSQSVLYESRNKNSVA,NASTREV,QQYHRLPLS
0.30 / 0.29 / 0.02 / 0.27 / 0.18 / 0.52,0.27,KVEQLHDYESRNKNAVA,NGSTRES,QQYHRLPLS
0.31 / 0.25 / 0.37 / 0.25 / 0.20 / 0.26,0.28,KFSQSEMYESRNKNPVA,NASQRYQ,QQYHRLPLS
0.32 / 0.46 / 0.29 / 0.30 / -0.03 / 0.32,0.28,MVNGIMDHLSKNSNNVA,ETTTRNS,QQYDRLPLS
0.43 / 0.12 / 0.20 / 0.10 / 0.54 / 0.33,0.29,KLSMITGHQLMSKNNVA,EMVTREN,QQYERLPLS
0.54 / 0.41 / 0.27 / 0.13 / 0.24 / 0.31,0.32,MVYQAAMMGGVARNSIA,NATMRPD,QQYHRLPLI
0.37 / 0.19 / 0.34 / 0.76 / 0.23 / 0.14,0.34,KLSTLFYKESKNKNNVA,EMTTRGS,QQYDRLPLS
0.49 / 0.39 / 0.23 / 0.25 / 0.28 / 0.41,0.34,LLSGSMQYESRNKNSVA,DASTRES,QAYHRLPLS
0.37 / 1.51 / -0.05 / -0.23 / 0.59 / 0.62,0.47,KSSWSVLYESNNKNSVA,HASTRED,QQYHRLPLS
0.82 / 0.37 / 0.95 / 0.17 / 0.58 / 0.10,0.50,KVSMQVLMSSRNKNSVA,QANTRES,QQYHRLPLS
1.32 / 0.80 / 0.88 / 0.27 / 0.45 / 0.22,0.66,KQQFSVLLESRQCNSVA,EASTREE,QQYHRLPLS
0.71 / 0.84 / 0.83 / 0.55 / 0.52 / 1.27,0.79,KLGSATRFESSNKASIA,DNSTREE,QQYHRLPLS
0.67 / 1.45 / 0.64 / 0.56 / 0.82 / 1.35,0.91,SLTIYTDENGLKMQSIA,GAGNRML,QQYHRLPLT
1.08 / 1.00 / 0.87 / 1.26 / 0.43 / 1.22,0.98,MFSQLFYTGSRTRNAVA,QASTREN,QQYHHLPLS
1.09 / 1.01 / 0.86 / 0.70 / 1.16 / 1.34,1.03,KREQSVLYEERNLNSVA,NASTRES,QQYHRLPLS
0.92 / 1.29 / 1.29 / 1.08 / 0.91 / 1.04,1.09,HMQIDIEMEEKHQNHVA,EASHLEY,QQYSELPLT
0.90 / 1.10 / 1.24 / 0.95 / 1.22 / 1.22,1.10,HITYGMMLMGRHSKSIA,QAEERAK,QQYDRLPLA
1.89 / 1.41 / 0.82 / 1.00 / 1.35 / 1.12,1.27,TLMQVGGYEMNDHNSIA,DLRTREN,QQYHRLPLS
n.d. / n.d. / 1.54 / 1.26 / 0.56 / 1.74,1.28,KSSQSVWYESRNKNSVA,SASTRES,QQYHRLPLS
1.59 / 1.30 / 1.32 / 0.94 / 2.10 / 1.32,1.43,KLRSVTGTEKVHGNNVA,EMETRER,QQYNRLPLS
1.11 / 1.77 / 1.58 / 1.33 / 1.79 / 1.65,1.54,MLSDLVKMGVRDTNSVA,DNSTRGS,QQYDRLPLS
1.79 / 2.05 / 1.58 / 1.53 / 1.33 / 1.40,1.61,MLTRFNLENQGRSNNIA,DTNNVQE,QQYFRLPFA
1.96 / 2.09 / 0.97 / 1.91 / 1.71 / 1.56,1.70,KVSQSVDYEQRNKNSVA,WASTRES,QQYHRLPLS
2.00 / 2.62 / 1.30 / 1.92 / 2.43 / 1.91,2.03,VFSGQWGLNTTQNSSVA,NVSETML,QQYNRLPLM
n.d. / 2.31 / 2.00 / 2.50 / 1.81 / 2.41,2.21,KESLSVTYESRNKNSVA,WASTRES,QQYHRLPLS
2.24 / n.d. / n.d. / n.d. / n.d. / n.d.,2.24,MISQLYNMGQFAINSVA,QASERNE,QQYDRLPLI
3.59 / 2.23 / n.d. / n.d. / 2.95 / 2.21,2.75,MVSQLMLWGLHAKNSIA,EAVTRFN,QQYDRLPLI
n.d. / n.d. / n.d. / n.d. / n.d. / n.d.,n.d.,KSSQKVLYESRNKNSVA,WASTREA,QWYWRLPLS
n.d. / n.d. / n.d. / n.d. / n.d. / n.d.,n.d.,KSSQSVLYESRNKNSVA,WASTRES,QQYHRLTLS
n.d. / n.d. / n.d. / n.d. / n.d. / n.d.,n.d.,KSSQSVLYESRNKNSVC,WASTRES,QQYHRLPLS

Extract of 7 entries:

CDR-L1,CDR-L2,CDR-L3,"replicates, log10 nM","log10 Kd (nM), mean"
MLTRFNLENQGRSNNIA,DTNNVQE,QQYFRLPFA,1.79 / 2.05 / 1.58 / 1.53 / 1.33 / 1.40,1.61
MVSQLMLWGLHAKNSIA,EAVTRFN,QQYDRLPLI,3.59 / 2.23 / n.d. / n.d. / 2.95 / 2.21,2.75
KVSQSVDYEQRNKNSVA,WASTRES,QQYHRLPLS,1.96 / 2.09 / 0.97 / 1.91 / 1.71 / 1.56,1.70
KSSWSVLYESNNKNSVA,HASTRED,QQYHRLPLS,0.37 / 1.51 / -0.05 / -0.23 / 0.59 / 0.62,0.47
KSSQSVWYESRNKNSVA,SASTRES,QQYHRLPLS,n.d. / n.d. / 1.54 / 1.26 / 0.56 / 1.74,1.28
KISQSSLYESRNKNSVA,QAVTRES,QQYHRLPLS,0.13 / 0.05 / 0.08 / 0.00 / -0.03 / 0.36,0.10
KLRSVTGTEKVHGNNVA,EMETRER,QQYNRLPLS,1.59 / 1.30 / 1.32 / 0.94 / 2.10 / 1.32,1.43

In the paper, a design with two or fewer of six values counts as a poor binder. The parent sequence was in this pool as ten entries: three were never detected, three once, and four in most replicates, with averages from 0.34 to 2.37. Values of this round are not directly comparable with the first-round values of the same sequences. Nonspecific signal, from three strains lacking the peptide, appeared in 4% of pairings of all light chain designs, centred on 2.64 (5% of these signals below 1.59); values are not corrected for it.

The measurements come from Li et al. 2023 (doi:10.1038/s41467-023-39022-2) through the FLAb antibody collection.